Experimental data: patent publication US7388124B2 (priority 2001, dated 2008)
Several values for one entry are separate records, joined by “and”; a condition that tells them apart may be missing. Equal values may be shown once. Read-outs that look alike come from different tables or passages of the source.

System: rat pain model variants
Type: in vivo, Sprague Dawley rats
Settings: Ketorolac 10% 0.1 cc IP; for von Frey F 4.93 # ST[…]-ANALGESIC: of 6
Method: Male Sprague Dawley rats initially weighing between 150 and 175 grams were housed singly. […] The pain behaviors studied were static mechanical allodynia (e.g., light touch stimulation with von Frey fibers 4.56, 4.73, 4.93, and/or 5.07), dynamic mechanical allodynia (e.g., stimulation with moving camel hair brush), and/or mechanical hyperalgesia (e.g., pinprick stimulation).
After the baseline control data was collected, the specified procedure with a gel was performed near the chosen nerve of each variant group (see Tables 2-6 and 8-10), then the rats were tested post procedurally and intermittently for up to 77 days for behavioral changes (see Tables 2-6 and 8-11) and for their responses to substances with analgesic properties (see Tables 7 and 12).
The stimuli used to elicit pain behavior were the von Frey fibers, camel hair brush and pinprick, with 6 stimulations of each stimulus.
The tunnels identified by the above studies were then used for the placement of the biocompatible gels by the chosen peripheral nerves. The gelatinous or viscous substances (i.e., the gels) placed by the peripheral nerves or nerve roots contained collagen (e.g., AVITENE® and gelatin) or hydrogels. The “collagen gel” used in the present study was composed of 0.8 grams of collagen as AVITENE® (microfibrillar collagen hemostat flour, Davol Inc., Cranston, R.I. 02920) and 0.7 grams of collagen as gelatin (Knox gelatin, Kraft Foods, Northfield, Ill. 60093) mixed with 14 cc of normal saline until homogenous. Then the collagen mixture was placed in a PYREX® bowl resting in a paper bowl and covered with a ceramic saucer, then heated for 20 seconds at full power in a microwave. The resulting viscous mixture was kept fluid in a warm water bath at 100-110° F., until used for the placement procedure. The wound hydrogels used in the present study were two types: one contains alginate (SAF-Gel® from ConvaTec of E. R. Squibb & Sons, Princeton, N.J.) and the other contains acemannan from Aloe vera L. (Carrasyn®V from Carrington Laboratories, Irving, Tex.). […] Such hydrogels are used in the care of open dermal wounds as well as in first and second degree burns since they provide a closed moist environment for wound healing.
The rats were anesthesized with 1.5% to 2% isoflurane for the percutaneous kinesthetic placement of the above “gels” by the specified nerves. Using an angled 23 gauge thin wall 1″ needle, approximately 0.1 cc-0.2 cc of gel was placed percutaneously with kinesthetic technique in the anatomically defined fascial tunnels of the chosen peripheral nerves as described below.
The doses were given intraperitoneally (I.P.) and behavioral stimulus testing began 40-80 minutes after the dose. The student's t-test (p<0.05) was performed for determining the significance of changes in behaviors associated with pain after the analgesic was administered.

O=C(c1ccccc1)c1ccc2n1CCC2C(=O)O (centres unmarked) [Ketorolac, ketorolac]
von Frey F 4.93 # ST[…]-ANALGESIC (1 rat peroneal n. with Avitene collagen, pre 6): 6
von Frey F 4.93 # ST[…]-ANALGESIC (1 rat tibial n. with Acemannan hydrogel, pre 6): 5
von Frey F 4.93 # ST[…]-ANALGESIC (1 rat tibial n. with Alginate hydrogel, pre 6): 6
von Frey F 4.93 # ST[…]-ANALGESIC (single rats sciatic n. with Alginate hydrogel (two rats, pre 5 and 6)): 2 and 3
von Frey F 4.93 # ST[…]-ANALGESIC, Total (total of 5 rats, pre total 29, pre vs post p=1.6E-1): 22
